From article PMC6582486, “Stapled EGFR peptide reduces inflammatory breast cancer and inhibits additional HER-driven models of cancer” (Journal of Translational Medicine, 2019)

Experiments:
[1] = system: BT474 breast cancer cells, Trastuzumab-sensitive (Parental); type: cell-based; conditions: 3 days of treatment, doses from 2.5 µg/mL
Excerpt: (§1) Fig. 1 Hydrocarbon stapling leads to increased EJ1 activity in comparison to HER-directed monoclonal therapies. a EJ1 sequence with PTD4 domain (underlined) corresponding to EGFR juxtamembrane domain sequence 643–663. Stabilized alpha helix (SAH) variations 1–5 beneath, with asterisks (*) indicating sites of staple. Control peptide (CP) with altered residues indicated by double underline. Stapled control (5) asterisks (*) indicate sites of staple. b Cartoon representation of EJ1 structure, with staple variation 5 highlighted. Positively charged residues indicated in blue, negatively charged residues in red. c Cartoon representation of CP structure, with staple variation highlighted. d Cell viability assay performed in MDA-MB-468 cells after 24 h comparing unstapled EJ1 versus staple variations SAH1, SAH4, and SAH5, with increasing concentrations. e Visualization of MDA-MB-468 cells untreated, treated with 10 µM EJ1, and 10 µM SAH5-EJ1 after 60 min. Scale bars represent 50 µm. f–h Cell viability assay performed in MDA-MB-468, MCF10A, or CHO cells over 3 days comparing treatment with Sapitinib (blue lines), SAH5-EJ1 (red lines), and SAH5-CP (grey lines). […] Absorbance was read at 540 nm by plate reader (uQuant, Bio-Tek Instruments). P-values were calculated from a one-way ANOVA.

[2] = system: BT474 clone 5 (Trastuzumab-resistant) breast cancer cells; type: cell-based; conditions: 3 days, doses from 2.5 µg/mL
Excerpt: as §1

Substance: Trastuzumab: anti-HER2 monoclonal antibody
- cell survival [1]: approximately 25%
- cell survival [2]: approximately 50%
